Assay: Human clinical biocomparison study: oral absorption from grazoprevir and Formulation 3 with and without pH-raising medication
Conditions: in vivo, Treatment 2: grazoprevir and Formulation 3 with pH-raising medication, 100 mg grazoprevir/50 mg Compound I, healthy subjects
Procedure: The Formulation 2 spray dried intermediate was blended and roller compacted along with microcrystalline cellulose, lactose, croscarmellose sodium, sodium chloride, colloidal silicon dioxide, and magnesium stearate. Only half of the magnesium stearate was added prior to roller compaction. The second half of the magnesium stearate and the remaining croscarmellose sodium was added after roller compaction and the resulting powder mix was blended further.
The oral absorption obtained from grazoprevir and Formulation 3 with (Treatment 2) and without (Treatment 1) co-administration of a pH-raising medication was evaluated as part of human clinical study.

Cmax: 95.5 nM
Compound: COC(=O)N[C@H](C(=O)N1CCC[C@H]1c1nc(-c2ccc3c(c2)O[C@@H](c2ccccc2)n2c-3cc3cc(-c4c[nH]c([C@@H]5CCCN5C(=O)[C@@H](NC(=O)OC)C(C)C)n4)ccc32)c[nH]1)C(C)C [Compound I, dimethyl N,N′-([(6S)-6-phenylindolo[1,2-c][1,3]benzoxazine-3,10-diyl]bis {1H-imidazole-5,2-diyl-(2S)-pyrrolidine-2,1-diyl[(2S)-3-methyl-l-oxobutane-1,2-diyl]})dicarbamate]
